# Binding of CDR-mutated scFvs to a peptide of the spike HR2 region

Binding partner: SARS-CoV-2 spike HR2 peptide, sequence PDVDLGDISGINAS.

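The starting antibody came from a phage panning campaign against this peptide. The library (AAYL50) carries one to three amino acid substitutions per variant, with no insertions or deletions. AlphaSeq pools MATa yeast showing the antibodies with MATalpha yeast showing the peptide. The frequency of each diploid, read from paired DNA barcodes, reflects how well the two displayed proteins bind. Scores were corrected for input abundance and mapped to Kd with protein pairs of known affinity run in the same pool. Each pool was mated in three replicate cultures.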

Parent scFv Ab-14: VH joined to VL by three GGGGS repeats. Changes lie in the light chain CDRs alone.
VH: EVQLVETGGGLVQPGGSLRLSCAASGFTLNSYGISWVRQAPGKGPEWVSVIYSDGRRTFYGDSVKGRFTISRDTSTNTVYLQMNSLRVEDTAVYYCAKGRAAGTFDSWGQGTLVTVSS
VL: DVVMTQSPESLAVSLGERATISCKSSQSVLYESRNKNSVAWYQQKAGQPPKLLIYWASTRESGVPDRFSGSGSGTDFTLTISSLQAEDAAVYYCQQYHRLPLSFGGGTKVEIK

Substitutions are numbered in sequence along the VL above, starting at 1 (not Kabat). Values are log10 of the apparent Kd in nM; lower means stronger binding. The mean shown is taken over the replicates in which the pair was detected. "nd" means that the variant was in the library but no mating with the target was seen in that replicate; the authors take this as a sign of poor binding, and no number exists. Parent in this assay: reference entry 0.65, copy in this library 1.68.

{"changes": "K24Y E32M S58D", "log10 Kd, replicates": "2.99 / 3.28 / 3.22", "log10 Kd (nM), mean": "3.16", "signal with controls": "3 of 9 (3.95)"}
{"changes": "V39K T59A L100R", "log10 Kd, replicates": "5.49 / 4.01 / 4.71", "log10 Kd (nM), mean": "4.74", "signal with controls": "6 of 9 (4.47)"}
{"changes": "S28D V39W Q95I", "log10 Kd, replicates": "4.47 / 3.77 / 3.73", "log10 Kd (nM), mean": "3.99", "signal with controls": "2 of 9 (4.23)"}
{"changes": "S25Q R60N", "log10 Kd, replicates": "nd / nd / nd", "log10 Kd (nM), mean": "nd", "signal with controls": "3 of 9 (4.25)"}
{"changes": "L30P W56Q L102S", "log10 Kd, replicates": "nd / nd / nd", "log10 Kd (nM), mean": "nd", "signal with controls": "1 of 9 (3.71)"}
{"changes": "N37V Q96I S103L", "log10 Kd, replicates": "nd / nd / nd", "log10 Kd (nM), mean": "nd", "signal with controls": "0 of 9"}
{"changes": "K36E R99M", "log10 Kd, replicates": "0.92 / 0.89 / 1.37", "log10 Kd (nM), mean": "1.06", "signal with controls": "0 of 9"}
{"changes": "V39E P101M", "log10 Kd, replicates": "nd / nd / nd", "log10 Kd (nM), mean": "nd", "signal with controls": "4 of 9 (4.32)"}
{"changes": "V39H L100S P101K", "log10 Kd, replicates": "nd / nd / nd", "log10 Kd (nM), mean": "nd", "signal with controls": "0 of 9"}
{"changes": "S28W E32M L102F", "log10 Kd, replicates": "nd / nd / 3.35", "log10 Kd (nM), mean": "3.35", "signal with controls": "0 of 9"}
{"changes": "Q27Y Y31E K36M", "log10 Kd, replicates": "0.27 / 0.58 / 0.48", "log10 Kd (nM), mean": "0.44", "signal with controls": "6 of 9 (4.47)"}
{"changes": "A57I H98E L100Y", "log10 Kd, replicates": "5.78 / 3.36 / 6.26", "log10 Kd (nM), mean": "5.13", "signal with controls": "2 of 9 (4.11)"}
{"changes": "S58Q Q95D Y97M", "log10 Kd, replicates": "nd / nd / nd", "log10 Kd (nM), mean": "nd", "signal with controls": "1 of 9 (3.33)"}
{"changes": "S28W R34F L100H", "log10 Kd, replicates": "nd / nd / nd", "log10 Kd (nM), mean": "nd", "signal with controls": "0 of 9"}
{"changes": "Q27E S33L E61Y", "log10 Kd, replicates": "1.29 / 1.84 / 1.61", "log10 Kd (nM), mean": "1.58", "signal with controls": "0 of 9"}
{"changes": "S28D N37W L102N", "log10 Kd, replicates": "0.58 / 0.81 / 0.69", "log10 Kd (nM), mean": "0.69", "signal with controls": "0 of 9"}
{"changes": "S28L S38M S62H", "log10 Kd, replicates": "nd / nd / nd", "log10 Kd (nM), mean": "nd", "signal with controls": "1 of 9 (2.11)"}
{"changes": "L30E S62K H98V", "log10 Kd, replicates": "0.62 / 1.01 / 0.87", "log10 Kd (nM), mean": "0.83", "signal with controls": "2 of 9 (4.82)"}
{"changes": "S26A L30H K36A", "log10 Kd, replicates": "1.21 / 1.27 / 1.31", "log10 Kd (nM), mean": "1.26", "signal with controls": "0 of 9"}
{"changes": "K36R V39M P101C", "log10 Kd, replicates": "1.19 / 1.42 / 1.49", "log10 Kd (nM), mean": "1.36", "signal with controls": "2 of 9 (4.03)"}
{"changes": "Y31V N35Y L102G", "log10 Kd, replicates": "0.60 / 0.66 / 0.82", "log10 Kd (nM), mean": "0.69", "signal with controls": "2 of 9 (4.23)"}

The opening 3 entries, copied out:

changes,"log10 Kd, replicates","log10 Kd (nM), mean",signal with controls
K24Y E32M S58D,2.99 / 3.28 / 3.22,3.16,3 of 9 (3.95)
V39K T59A L100R,5.49 / 4.01 / 4.71,4.74,6 of 9 (4.47)
S28D V39W Q95I,4.47 / 3.77 / 3.73,3.99,2 of 9 (4.23)

Empty control strains, which show no peptide, gave a signal in 18% of pairings with library AAYL50; the median was 4.19 and 95% of these signals were weaker than 2.99. No background was subtracted. For each scFv, signals with the empty controls are counted beside the result, with their mean in brackets.

Values reported by Engelhart et al. 2022, doi:10.1038/s41597-022-01779-4 (FLAb copy).